Literature values as cited in US10821097B2, “DBH inhibitors for treating or preventing memory loss” (Brandeis University, priority 2015, dated 2020).

Sequences of proteins named here, by UniProt entry; tags and fusion partners are left off.
UniProt P41145, whole entry D138N: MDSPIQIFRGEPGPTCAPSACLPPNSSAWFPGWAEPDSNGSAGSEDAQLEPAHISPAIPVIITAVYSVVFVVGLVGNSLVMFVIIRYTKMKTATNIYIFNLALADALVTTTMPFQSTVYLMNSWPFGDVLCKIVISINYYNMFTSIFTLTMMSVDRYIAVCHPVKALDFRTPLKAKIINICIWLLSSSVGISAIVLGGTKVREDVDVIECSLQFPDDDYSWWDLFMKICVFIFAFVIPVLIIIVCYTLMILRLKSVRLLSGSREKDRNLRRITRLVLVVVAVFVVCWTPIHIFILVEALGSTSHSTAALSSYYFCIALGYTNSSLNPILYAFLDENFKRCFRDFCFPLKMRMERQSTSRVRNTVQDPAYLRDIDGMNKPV

Biological target: T1, KORD (Homo sapiens, UniProt P41145, D138N)
T1 construct: host or cells: transgene/viral expression in mouse neurons (Vardy et al., 2015); planned LC-specific KORD mice
Conditions: 10 mg/kg subcutaneously; cited from earlier work

COC(=O)[C@@H]1C[C@H](O)C(=O)[C@H]2[C@@]1(C)CC[C@H]1C(=O)O[C@H](c3ccoc3)C[C@]21C [SALB, salvinorin B]
duration of effects after injection: ~1 h
